From patent US4021421A, “Benzodiazepine derivatives” (Richter Gedeon Vegyeszeti Gyar Rt., priority 1974, dated 1977)

Key:
[1] = tested on: hexobarbital oxidase; experiment: in vivo hexobarbital oxidase activity: hexobarbital sleeping time in rats (enzyme induction); set-up: species or system male Wistar rats
Method: The enzyme-inducing effects of the new compounds were examined under in vivo conditions by determining the hexobarbital oxidase activity. The active agents of the formula (I) were administered to male Wistar rats weighing 50 to 60 g. in oral dosages of 40 mg./kg. The effect appears 24 hours after the administration of the enzyme-inducing substance. At that time the inactivation rate of hexobarbital was determined by administering intravenously 40 mg./kg. of hexobarbital sodium into the animals and measuring the time elapsed between the administration and the reappearance of the righting reflex. The period of sleep observed for the animals treated with the new compounds was compared to that observed in the control group (the animals belonging to the control group were treated with carrier substance only).
24 Hours after the administration of the enzyme-inducing compounds the in vivo inactivation of hexobarbital accelerates, which is evidenced by the shortening of the period of sleep. The results were expressed as percentage differences with respect to the controls. On the basis of the preliminary experiments a difference greater than 25% was regarded to be biologically significant.

[2] = tested on: hexobarbital; experiment: biological half life-time of hexobarbital (UV spectrophotometry of plasma); settings: rats

CN1C(=O)CN(N=Cc2ccccc2)C(c2ccccc2)c2cc(Cl)ccc21 (centres unmarked) [Example 5, 1-Methyl-4-benzalamino-5-phenyl-7-chloro-1,3,4,5-tetrahydro-2H-1,4-benzodiazepine-2-one]
activity rank among the new compounds (in words) [1]: the most active representative of the new compounds
effect on half life-time of hexobarbital (in words) [2]: effectively decreases the half life-time of hexobarbital in rats
